According to patent US5620676A, “Biologically active ATP analogs” (priority 1995, dated 1997):
Where two headings read alike, the source gives them in different places.

The chains behind the UniProt entries cited, without tags or fusion partners. Where a name states a change or a piece, a line headed by the entry shows the natural chain unless it says otherwise.
UniProt P49652: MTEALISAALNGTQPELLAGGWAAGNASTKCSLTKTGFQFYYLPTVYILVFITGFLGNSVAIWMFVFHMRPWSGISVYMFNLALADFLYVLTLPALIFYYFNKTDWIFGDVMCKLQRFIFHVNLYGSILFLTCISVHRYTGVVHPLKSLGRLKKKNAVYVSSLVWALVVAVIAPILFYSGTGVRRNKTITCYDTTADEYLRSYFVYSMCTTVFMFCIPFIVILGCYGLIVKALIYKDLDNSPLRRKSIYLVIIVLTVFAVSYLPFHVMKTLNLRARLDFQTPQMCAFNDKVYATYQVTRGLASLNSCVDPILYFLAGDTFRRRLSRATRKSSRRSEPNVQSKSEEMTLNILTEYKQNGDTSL

Target: T1, P2Y receptor (turkey erythrocyte membranes) (Meleagris gallopavo, UniProt P49652)
T1 construct: from tissue; host or cells: washed turkey erythrocytes, ghosts prepared by hypotonic lysis
Test: Stimulation of phospholipase C (inositol phosphate formation) in turkey erythrocyte membranes
Type: biochemical
Description: Phospholipase C activity: Stimulation of inositol phosphate formation by compounds of the present invention was measured in turkey erythrocyte membranes as described by Harden et al., supra and Boyer et al., supra. The K0.5 values were averaged from 3-8 independently determined dose-response curves for each compound. Briefly, one ml of washed turkey erythrocytes was incubated in inositol-free medium (DMEM; Gibco) with 0.5-1 mCi of 2-[^3 H]myoinositol (20 Ci/mmol; American Radiolabeled Chemicals Inc., St. Louis, Mo.)for 18-24 h in a humidified atmosphere of 95% air 5% CO2 at 37° C. Erythrocyte ghosts were prepared by rapid lysis in hypotonic buffer (5 mM sodium phosphate, pH 7.4, 5 mM MgCl2, 1 mM EGTA) as described by Boyer et al., supra. Phospholipase C activity was measured in 25 μl of [^3 H]inositol-labeled ghosts (≈175 μg of protein, 200-500,000 cpm/assay) in a medium containing 424 μM CaC12, 0.91 mM MgSO4, 2 mM EGTA, 115 mM KCl, 5 mM KH2 PO4, and 10 mM Hepes, pH 7.0. […] Ghosts were incubated at 30° C. for 5 min, and total [^3 H]inositol phosphates were quantitated after purification by anion exchange chromatography according to Harden et al. (supra) and Boyer et al. (supra). […]
Phospholipase C activity and muscle relaxation/contraction effects were assessed using the methods recited in Example 3. […]

How did the EC50 (mean ± S.E.M. for at least 2 determinations, read-out: phosphatidyl inositol metabolism (K0.5, nM) erythrocyte) turn out when `CSc1nc(N)c2ncn([C@@H]3O[C@H](COP(=O)(O)OP(=O)(O)O)[C@@H](O)[C@H]3O)c2n1` [2-MeS-ADP, 2-methylthio-ADP, reference compound] was run?
Its EC50 is 6 ± 3 nM.

And the EC50 (read-out: K0.5)?
Its EC50 is 6 nM.
